Key:
MIA PaCa-2 cells [1] = experiment: In-vitro anti-proliferative activity against MIA PaCa-2 cells; type: cell-based; details: Homo sapiens, 72 h after dosing, intracellular ATP content
Procedure: (§1) MIA PaCa-2 cells were seeded on a 384-well plate at 3000 cells/well. After overnight adherence culture, DMSO or the compounds serially diluted 1:5 from 5 μM were added. […] The inhibition percentage of viable cells by the compounds was calculated by comparing with the DMSO group, and the IC50 value was calculated.

MIA PaCa-2 cells [2] = experiment: In-vitro anti-proliferative activity in combination with gemcitabine against MIA PaCa-2 cells; type: cell-based; details: in combination with 20 nM gemcitabine, 72 h after dosing
Procedure: as §1, with “cells/well, and 20 nM gemcitabine was added.” for “cells/well.”, “100 nM” for “5 μM”

[3] = system: Human colon cancer LOVO cells; experiment: In vivo efficacy in LoVo model; design: species or system nude mouse; details: mouse, po, 20 mg/kg
Procedure: After being subcultured, the cells were collected when they reached the desired amount. 1×10^7 LOVO cells were injected into the left dorsal side of each nude mouse, and the animals were randomly grouped for administration after tumors grew to 100-200 mm^3. The groups were as follows: a solvent control group of 8 mice and a compound group of 8 mice. The compounds were administered orally 3 days a week and interrupted for 4 days, for 21 consecutive days. The vehicle was a 0.5% MC suspension containing 1% tween-80. On Tuesday and Thursday each week, tumor volumes and body weight of the mice were measured, and the nude mice were sacrificed on day 21 after the administration. […] The toxicity of the compounds was evaluated according to the body weight of the mice.

[4] = system: Human colon cancer HT29 cells; experiment: In vivo efficacy in HT-29 model, alone and with gemcitabine; design: species or system nude mouse
Procedure: After being subcultured, the cells were collected when they reached the desired amount. 1×10^7 HT29 cells were injected into the left dorsal side of each nude mouse, and the animals were randomly grouped for administration after tumors grew to 100-200 mm^3. The groups were as follows: a solvent control group of 6 mice, a single drug group of 15 mg/kg gemcitabine (GMC), and a combination group of 15 mg/kg gemcitabine and a compound. Gemcitabine was administered intraperitoneally with PBS as a vehicle once a week. The compounds were administered 3 days a week and interrupted for 4 days (3 on/4 off), for 21 consecutive days, and the vehicle was a 0.5% MC suspension containing 1% tween-80. On Tuesday and Thursday each week, tumor volumes and body weight of the mice were measured, and the nude mice were sacrificed on day 21 after the administration. […] The toxicity of the compounds was evaluated according to the body weight of the mice.

| Compound | IC50 (MIA PaCa-2 cells [1]) | IC50 (MIA PaCa-2 cells [2]) | TGI(%) [3] | TGI(%) ([4]; mouse, in vivo) | TGI(%) ([4]; mouse, in vivo, po, 20 mg/kg) | TGI(%) ([4]; HT-29 model in nude mice, single agent, 20 mpk BID PO, 3on/4off, day 21) |
| --- | --- | --- | --- | --- | --- | --- |
| C[C@@H]1COCCN1c1cc(-c2ccnn2C)c2ccnc(-c3ccn[nH]3)c2n1 [BAY1895344, reference compound] | < 1000 nM | 1.71 nM | 71.2% | 74.3% | 53.1% | – |
| (R)-1-(2-(3-methylmorpholino)-8-(1H-pyrazol-5-yl)-1,7-naphthyridin-4-ylmethyl)cyclohexane-1-carbonitrile [Compound 25] | – | – | – | – | – | 53.1% |

Source: patent publication US20240317741A1, “NAPHTHYRIDINE DERIVATIVE AS ATR INHIBITOR AND METHOD FOR PREPARING SAME” (WIGEN BIOMEDICINE TECHNOLOGY (SHANGHAI) CO., LTD., priority 2021, published 2024)
